In this assay the target is HIF prolyl hydroxylase. Put plainly: Inhibition of the activity of HIF prolyl hydroxylase (VBC complex binding test). The class given is biochemical. From the text: 1. In Vitro Tests for Determination of the Activity and Selectivity of HIF Prolyl 4-Hydroxylase Inhibitors 1.a) Inhibition of the Activity of HIF Prolyl Hydroxylase:
Hydroxylated HIF bonds specifically to the von Hippel-Lindau protein-elongin B-elongin C complex (VBC complex). This interaction occurs only if HIF is hydroxylated on a conserved prolyl radical. It is the basis for the biochemical determination of HIF prolyl hydroxylase activity.
A clear 96-well microtiter plate coated with NeutrAvidin HBC (Pierce) is incubated with blocker casein for 30 minutes. The plate is then washed three times with 200 μl each time of wash buffer (50 mM Tris, pH 7.5, 100 mM NaCl, 10% (v/v) blocker casein, 0.05% (v/v) Tween 20) per well. […] This peptide serves as a substrate for the prolyl hydroxylation and is bonded to the microtiter plate. […]
For quantitative determination of the prolyl hydroxylation, a fusion protein which contains both thioredoxin from E. coli and the VBC complex in 80 μl bonding buffer (50 mM Tris, pH 7.5, 120 mM NaCl) is added. […] The amount of bonded VBC complex is determined by measurement of the optical density at 450 nm. […]
Alternatively, a VBC complex coupled to europium (Perkin Elmer) can be used for detection of the prolyl hydroxylation. In this case, the amount of bonded VBC complex is determined by the fluorescence with respect to time. […]

Structures can show the parent of a compound that is named as a salt.

`CC(C)(C)COc1ccc(-n2[nH]cc(-c3cccnc3)c2=O)nc1` [Example 89, 2-[5-(2,2-Dimethylpropoxy)pyridin-2-yl]-4-pyridin-3-yl-1,2-dihydro-3H-pyrazol-3-one hydrochloride]: the half-maximal inhibitory concentration (IC50) is 3.7 µM.

These data come from patent publication US8609698B2, “Substituted dipyridyl-dihydropyrazolones and use thereof” (Bayer Intellectual Property GmbH, priority 2006, dated 2013).
